Experimental data taken from patent US11168080B2, “Dynamin-1-like protein inhibitors” (Mitobridge, Inc., priority 2017, dated 2021).

The chains behind the UniProt entries cited, without tags or fusion partners.
UniProt O00429, whole entry: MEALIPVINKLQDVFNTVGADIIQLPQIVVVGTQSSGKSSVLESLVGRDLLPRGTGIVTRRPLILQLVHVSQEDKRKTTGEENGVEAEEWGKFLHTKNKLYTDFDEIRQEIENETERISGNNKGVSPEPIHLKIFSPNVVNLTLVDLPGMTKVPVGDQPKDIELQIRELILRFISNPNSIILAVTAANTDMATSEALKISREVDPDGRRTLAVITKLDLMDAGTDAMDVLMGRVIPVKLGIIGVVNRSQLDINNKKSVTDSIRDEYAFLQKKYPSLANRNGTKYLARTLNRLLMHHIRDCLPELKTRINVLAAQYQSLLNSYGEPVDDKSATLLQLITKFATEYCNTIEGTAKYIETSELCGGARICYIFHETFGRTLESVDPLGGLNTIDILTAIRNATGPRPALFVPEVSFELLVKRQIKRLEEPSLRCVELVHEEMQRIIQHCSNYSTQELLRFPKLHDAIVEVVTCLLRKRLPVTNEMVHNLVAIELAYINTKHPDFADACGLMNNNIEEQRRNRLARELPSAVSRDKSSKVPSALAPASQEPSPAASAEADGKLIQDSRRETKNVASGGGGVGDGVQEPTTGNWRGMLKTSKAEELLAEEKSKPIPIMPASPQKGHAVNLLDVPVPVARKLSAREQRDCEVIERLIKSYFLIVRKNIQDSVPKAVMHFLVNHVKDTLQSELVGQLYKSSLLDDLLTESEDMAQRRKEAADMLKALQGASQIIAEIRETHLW

Biological target: Drp1 (Homo sapiens (Human), UniProt O00429)
Test: Drp1 Activity Screen: colorimetric (malachite green) GTPase assay
Type: biochemical
Settings: max % inhibition of Drp1 GTPase activity; 0.6 μM Drp1, 0.1 mg/mL liposomes, 1 mM GTP, 20 min at 37° C.

`Cc1cc(C(=O)Nc2ccc(C(=O)O)cc2)n(Cc2csc(N(C)C)n2)c1` was tested, and the max % inh was 59%.
